Measured values as given in US6667306B1, “Platelet ADP receptor inhibitors” (Millennium Pharmaceuticals, Inc., priority 1998, dated 2003).

Amino acid sequences for entries named in this document (tags omitted). A change or cut given only in a name is not applied to a line headed by its entry.
UniProt P47900: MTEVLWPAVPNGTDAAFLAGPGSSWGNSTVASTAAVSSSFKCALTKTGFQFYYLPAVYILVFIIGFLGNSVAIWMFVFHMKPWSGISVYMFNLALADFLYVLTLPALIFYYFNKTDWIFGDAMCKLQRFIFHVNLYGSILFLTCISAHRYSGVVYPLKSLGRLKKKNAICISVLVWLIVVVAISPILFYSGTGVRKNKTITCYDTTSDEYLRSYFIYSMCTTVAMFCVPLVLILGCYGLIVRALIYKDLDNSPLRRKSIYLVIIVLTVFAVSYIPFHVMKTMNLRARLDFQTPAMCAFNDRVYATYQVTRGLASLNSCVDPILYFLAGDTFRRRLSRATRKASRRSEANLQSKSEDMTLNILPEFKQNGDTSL

Molecular target: T1, human P2Y1 receptor (hP2Y1) (Homo sapiens, UniProt P47900)
T1 construct: a genomic fragment encompassing the entire open reading frame of the human P2Y1 receptor; expressed in transfected cells; host or cells: Jurkat cells, clonal line hP2Y1-JA7, vector pcINeo
Experiment: hP2Y1 receptor activity assay (2-MeS-ADP-induced intracellular calcium mobilization in hP2Y1-JA7 Jurkat cells)
Type: cell-based
Conditions: platelet aggregation IC50 versus hP2Y1 IC50

CCOc1ccc2c(c1)SC1=NS(=O)(=O)C(C(=O)CS(=O)(=O)Nc3nc4ccc(OCC)cc4s3)=C(O)N12 [Compound 1, N^1-(6-Ethoxy-1,3-benzothiazol-2-yl)-2-(8-ethoxy-4-hydroxy-2,2-dioxo-2H-2l^6-benzo[4,5][1,3]thiazolo[2,3-c][1,2,4]thiadiazin-3-yl)-2-oxo-1-ethanesulfonamide]
selectivity for platelet ADP receptors mediating aggregation over hP2Y1: about 1000 fold
